Experimental data published in patent US7608611B2, “Hsp90 inhibitors, methods of making and uses therefor” (The Regents of the University of Colorado, priority 2005, dated 2009).

Molecular target: human Hsp90 (Homo sapiens, UniProt P07900)
Details: 17-AAG, 12 hr

C=CCNC1=C2C[C@@H](C)C[C@H](OC)[C@H](O)[C@@H](C)/C=C(\C)[C@H](OC(N)=O)[C@@H](OC)/C=C\C=C(/C)C(=O)NC(=CC1=O)C2=O [17-AAG, 17-demethoxy-17-(2-propenylamino)-geldanamycin]
inhibition of human Hsp90 ATPase activity with inclusion of NQO1 (NADH and rhNQO1): Inhibition was significantly increased | inhibition of human Hsp90 ATPase activity in the absence of NQO1 (NADH): some inhibition of Hsp90 ATPase activity
